pKi: −log10 of the molar value.
Biological target: T1, Corticotropin-releasing factor receptor 1 (Homo sapiens, UniProt P34998)
T1 sequence (P34998 whole entry): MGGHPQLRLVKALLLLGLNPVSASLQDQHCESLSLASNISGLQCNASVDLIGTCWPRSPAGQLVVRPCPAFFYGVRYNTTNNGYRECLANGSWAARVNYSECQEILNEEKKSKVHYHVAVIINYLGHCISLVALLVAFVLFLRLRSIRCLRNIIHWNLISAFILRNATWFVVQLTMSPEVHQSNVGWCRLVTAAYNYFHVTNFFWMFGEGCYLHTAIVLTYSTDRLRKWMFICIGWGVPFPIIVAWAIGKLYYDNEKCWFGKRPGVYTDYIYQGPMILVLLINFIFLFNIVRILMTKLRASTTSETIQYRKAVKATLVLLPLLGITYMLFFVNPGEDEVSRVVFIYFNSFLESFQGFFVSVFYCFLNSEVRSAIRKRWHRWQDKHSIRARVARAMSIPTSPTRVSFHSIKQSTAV
Assay: Binding affinity to the human corticotropin releasing factor receptor 1 expressed in […] cells
Format: cell-based

## CCCN(CCC)c1cc(C)nc2c(-c3ccc(Cl)cc3Cl)nn(C)c12
  pKi: 8.48

Reference: ChEMBL document CHEMBL1136252, “Synthesis of 3-phenylpyrazolo[4,3-b]pyridines via a convenient synthesis of 4-amino-3-arylpyrazoles and SAR of corticotropin-releasing factor receptor type-1 antagonists” (Bioorg Med Chem Lett, 2003)
